Test results: patent US20240085426A1, “TRIPLE QUADRUPOLE-BASED MULTIPLE REACTION MONITORING FOR CLINICAL THERAPEUTIC RESPONSE PREDICTION IN CANCER” (NATIONAL CANCER CENTER, priority 2020, published 2024)

Tested on: metastatic gastric cancer
Test: Clinical response of HER2-positive metastatic gastric cancer patients to combination therapy with trastuzumab
Assay type: in vivo, patient
Description: The present invention was applied to gastric cancer tissues isolated from pre-treatment of two male gastric cancer patients (patients 7 and 8) who were both positive on HER2 immunostaining (3+, 2+) and received combination therapy with trastuzumab (trade name: Herceptin), which is a HER2-targeting agent.

trastuzumab
clinical response (patient 7, first-line, HER2 immunostaining positive): partial response | clinical response (patient 8, first-line, at first response evaluation, treatment discontinued): progressive disease
